US9890140B2, “Maleate salts of a quinazoline derivative useful as an antiangiogenic agent” (AstraZeneca AB, priority 2003, dated 2018)

Key:
Assay type in all cases: physicochemical
[1] = Evidence of hydrate formation (vapour sorption or TGA); conditions: vapour sorption (hysteresis, water absorption) or TGA
Protocol: About 5 mg of material contained in a quartz holder at 25° C. was subjected to humidified nitrogen at the following relative humidities (RH): 0, 20, 40, 60, 80, 95, 80, 60, 40, 20, 0% RH in duplicate. Typically between 3 and 12 mg of material contained in a 70 μl alox (aluminium oxide) crucible was heated over the temperature range 25° C. to 325° C. at a constant heating rate of 10° C. per minute. A purge gas using helium was used—flow rate 50 ml per minute.

[2] = Crystallinity of AZD2171 salts
[3] = Evidence for polymorphism from DSC thermograms
Protocol: Analytical Instrument: Mettler DSC820e. Typically less than 5 mg of material contained in a 40 μl aluminium pan fitted with a pierced lid was heated over the temperature range 25° C. to 325° C. at a constant heating rate of 10° C. per minute. A purge gas using nitrogen was used—flow rate 100 ml per minute.

[4] = Dynamic vapour sorption, moisture content at 80% RH; conditions: 80% relative humidity
Protocol: Dynamic Vapour Sorption Analytical Instrument: Surface Measurements Systems Dynamic Vapour Sorption Analyser. About 5 mg of material contained in a quartz holder at 25° C. was subjected to humidified nitrogen at the following relative humidities (RH): 0, 20, 40, 60, 80, 95, 80, 60, 40, 20, 0% RH in duplicate.

Evidence of Hydrate Formation (Yes/No) [1]: No
Crystalline (Yes/No) [2]: Yes
No of Polymorphs [3]: ≧2
Moisture Content at 80% RH [4]: 11.4%
Substance: Succinate
